Experimental data taken from ChEMBL document CHEMBL2331553, “Discovery of N-[[1-[2-(tert-butylcarbamoylamino)ethyl]-4-(hydroxymethyl)-4-piperidyl]methyl]-3,5-dichloro-benzamide as a selective T-type calcium channel (Cav3.2) inhibitor” (Bioorg Med Chem Lett, 2013).
pIC50: −log10 of the molar value.

Protein sequences, listed by entry. Tags and fused reporters are not part of them.
UniProt P05177, whole entry: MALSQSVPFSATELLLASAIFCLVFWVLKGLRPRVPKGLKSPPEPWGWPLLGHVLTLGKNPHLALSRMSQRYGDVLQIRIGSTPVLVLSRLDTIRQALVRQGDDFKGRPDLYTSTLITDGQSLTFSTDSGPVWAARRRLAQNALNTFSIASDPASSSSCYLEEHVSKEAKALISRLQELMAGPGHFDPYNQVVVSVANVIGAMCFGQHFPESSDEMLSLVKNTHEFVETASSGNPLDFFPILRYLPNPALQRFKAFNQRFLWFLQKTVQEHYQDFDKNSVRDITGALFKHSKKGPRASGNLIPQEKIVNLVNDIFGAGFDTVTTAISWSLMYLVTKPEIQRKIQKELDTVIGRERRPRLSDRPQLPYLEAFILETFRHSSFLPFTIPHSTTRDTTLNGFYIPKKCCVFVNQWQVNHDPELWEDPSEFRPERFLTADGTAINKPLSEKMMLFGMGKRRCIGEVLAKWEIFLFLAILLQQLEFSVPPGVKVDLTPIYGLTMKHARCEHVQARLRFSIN
UniProt P08684, whole entry: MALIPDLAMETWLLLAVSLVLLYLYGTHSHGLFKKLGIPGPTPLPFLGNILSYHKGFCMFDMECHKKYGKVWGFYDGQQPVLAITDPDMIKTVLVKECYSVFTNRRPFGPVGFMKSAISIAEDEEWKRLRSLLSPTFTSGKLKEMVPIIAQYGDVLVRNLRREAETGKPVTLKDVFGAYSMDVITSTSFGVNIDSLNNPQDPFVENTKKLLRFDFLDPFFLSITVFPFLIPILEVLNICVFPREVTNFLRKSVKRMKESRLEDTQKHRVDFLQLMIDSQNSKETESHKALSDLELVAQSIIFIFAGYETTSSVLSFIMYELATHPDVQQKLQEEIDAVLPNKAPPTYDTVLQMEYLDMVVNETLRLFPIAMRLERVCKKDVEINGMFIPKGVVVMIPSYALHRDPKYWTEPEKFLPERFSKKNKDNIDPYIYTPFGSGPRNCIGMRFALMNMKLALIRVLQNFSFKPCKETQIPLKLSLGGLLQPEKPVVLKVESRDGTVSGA

Legend:
Cytochrome P450 1A2 = Cytochrome P450 1A2 (Homo sapiens, UniProt P05177); assay: Inhibition of human recombinant CYP1A2; assay type: ADME
Cytochrome P450 3A4 = Cytochrome P450 3A4 (Homo sapiens, UniProt P08684); assay: Inhibition of human recombinant CYP3A4; assay type: ADME

## CC(C)(C)NC(=O)NCCN1CCC(CO)(CNC(=O)c2cc(Cl)cc(Cl)c2)CC1
Cytochrome P450 1A2
  pIC50: < 5.00
Cytochrome P450 3A4
  pIC50: < 5.00
